Literature values in patent US12378302B2, “Fusion molecules and uses thereof” (Foundation Medicine, Inc., priority 2012, dated 2025).

Tested on: pancreatic cancer
Settings: Phase 1, in combination with other drugs

Question: With `CS(=O)(=O)CCNCc1ccc(-c2ccc3ncnc(Nc4ccc(OCc5cccc(F)c5)c(Cl)c4)c3c2)o1` [lapatinib] as the molecule, how does the safety read?
Answer: safety
